{
  "source": "patent US11160764B2",
  "about": "“Drug delivery composition containing silyl polymers” (Medherant Limited, priority 2015, dated 2021)",
  "assay": "Solubility of drugs in the adhesive compositions / patches",
  "details": "grade A composition (Table 5)",
  "data": [
    {"smiles": "CCN(CC)CC(=O)Nc1c(C)cccc1C", "note": "[Lidocaine]", "values": [
      {"measurement": "Sol. type", "value": "Molecular"}
    ]}
  ]
}
